Measurements published in patent US20210230213A1, “ARAMCHOL SALTS” (GALMED RESEARCH AND DEVELOPMENT LTD., priority 2013, published 2021).

Experiments:
[1] = Aqueous solubility at 20° C., shake-flask, stepwise water addition (Example 2); format: physicochemical; details: for Solubility in water: 20° C.; for pH of solution: after solubility test in water
Protocol: The Aramchol salts of the present invention were further assessed for their solubility in water. […] 5 mg of each salt was weighed. Water was added stepwise until a clear solution was obtained (Table 2, solubility in water). The pH of each solution was measured (Table 2, pH after solubility).

[2] = Saturated solubility in buffer solutions and bio-relevant media at 37° C. (Example 6); format: physicochemical; details: for solubility: 37° C.
Protocol: The saturated solubility of N-methylglucamine, Tromethamine and L-Lysine was determined in different buffer solutions and bio-relevant media: HCl buffer pH 1.2, Acetate buffer pH 4.5, Saline pH 5.5, Phosphate buffer pH 6.5, Phosphate buffer pH 7.0, PBS pH 7.4, FaSSIF (pH 6.5), FeSSIF (pH 5.0) and demi-water (pH 7.8, was not adjusted after dissolution). Experiments were performed by slurrying a 5 mL (˜150 mg) saturated solution for 30 minutes and 24 hours at 37° C. […] All experiments were performed in duplicate.

[3] = In vivo permeability / PK after intrajejunal administration in cannulated rats (Example 7); parameters: species or system male Wistar rats; details: rat
Protocol: An in vivo permeability study of Aramchol salts was performed in male Wistar rats cannulated in the jugular vein and in the jejunum. Intestinal cannulation was performed in order to bypass protonation of Aramchol salts in acidic gastric pH. Aramchol salts solubilized in PBS (30 mg/mL) were administered to rats intestine (jejunum) in a dose of 100 mg/kg (based on free acid), via a cannula inserted into the proximal side of the jejunum. A suspension of Aramchol free acid (in PBS, 30 mg/mL) was administered via the same route and was used as control. Blood samples were withdrawn via a cannula inserted into jugular vein at pre-determined time points (pre-dose, 1 hr, 2 hr, 4 hr, 8 hr, 12 hr, 24 hr post dose). Plasma concentrations of Aramchol (free acid) were measured using a liquid chromatography-tandem mass spectrometry (LC-MS-MS) method by Analyst Bioanalytical Laboratories, Israel. All PK parameters were calculated using non-compartmental analysis. Only those plasma concentrations equal to or greater than the lower limit of quantitation (LOQ) (48.66 ng/mL) were used in the analysis. […] The following PK parameters were calculated: maximum plasma concentration (Cmax), time to Cmax (Tmax), area under the plasma concentration-time curve from time of administration until the last plasma concentration (AUC0-4), AUC/dose, elimination half-life (t½). […]

[4] = Pharmacokinetics of capsules in dogs, single dose and BID (Example 8)
Protocol: Capsules containing 100 mg of Aramchol were dosed to dogs as either the free acid or the meglumine salt.
The complete data-set across all animals and time-points for each dose form (free acid or meglumine salt) were fit to single compartment PK models with first order rate of absorption Ka (h−1) and elimination parameterised by CL and V (rate of elimination=CL/V, h−1). For the meglumine salt group, the first dose data for M5 was removed.
Capsules containing 100 mg of Aramchol were dosed to dogs as either the free acid or the meglumine salt BID. […] A clinical study that investigated the plasma concentration of Aramchol after oral dosing of 300 mg BID at steady state was conducted in 16 healthy volunteers.

[5] = Twice daily administration for 10 days of Aramchol and Aramchol meglumine in humans (Example 9); format: in vivo
Protocol: 300 mg aramchol free acid were administered to human subjects twice daily, and 383 mg aramchol meglumine salt were administered to human subjects twice daily, as detailed in FIG. 13.

[6] = Phosphate buffer pH 6.5, 30 min
[7] = Phosphate buffer pH 7.0, 30 min

| Substance | Solubility in water ([1]; XRPD: Amorphous) [mg/mL] | pH of solution ([1]; XRPD: Amorphous) | solubility ([2]; Demi-Water (pH 7.8), 30 min) | solubility ([2]; FaSSIF (pH 6.5), 30 min) | solubility ([2]; FaSSIF (pH 6.5), 24 h) | solubility ([2]; FeSSIF (pH 5.0), 30 min) | solubility ([2]; FeSSIF (pH 5.0), 24 h) | solubility ([2]; PBS pH 7.4, 30 min) | solubility ([2]; PBS pH 7.4, 24 h) | solubility [2, 6] | solubility ([2]; Phosphate buffer pH 6.5, 24 h) | solubility [2, 7] | solubility ([2]; Phosphate buffer pH 7.0, 24 h) | solubility ([2]; Saline pH 5.5, 30 min) | further results |
| --- | --- | --- | --- | --- | --- | --- | --- | --- | --- | --- | --- | --- | --- | --- | --- |
| 3β-arachidylamido-7α,12α-dihydroxy-5β-cholan-24-oic acid N-methylglucamine salt | 113 to 1130 | 7 | 156.51 mg/ml ± | Gel | Gel | Gel | Gel | 31.83 mg/ml ± | Gel | Gel | Gel | 18.85 mg/ml ± | Gel | 0.04 mg/ml ± | increase in solubility from pH 7.4 (PBS) to pH 7.8 (demi-water) [2]: 5 fold; solubility ([2]; Demi-Water (pH 7.8), 24 h, listed as N-Methyl glucamine): 109.72 mg/ml ±; solubility ([2]; Demi-Water (pH 7.8), 24 h, listed as N-methylglucamine salt): remained as a solution; increase in AUC/dose compared to Aramchol free acid [3]: 2.6 fold; AUC0-12 h/AUCinf ([4]; day 1 AUCinf with animal M5 removed): 1.02; AUC0-12 h/AUCinf ([4]; day 11 AUC0-12 h over day 1 AUCinf, all animals): 1.38; exposure higher relative to the free acid ([4]; overall non-compartmental analysis): approximately 30%; V ([4]; single compartment PK model): 11474; Ka ([4]; single compartment PK model, first order absorption): 0.11 h⁻¹; AUCss and Cavg / exposure relative to aramchol free acid ([5]; listed as Aramchol meglumine): double exposure; AUCss and Cavg / exposure relative to aramchol free acid ([5]; listed as armachol meglumine salt): about twice higher |
| 3β-arachidylamido-7α,12α-dihydroxy-5β-cholan-24-oic acid lysine salt [L-Lysine] | 10 to 32 | 8 | 49.27 mg/ml ± | Gel | Gel | Gel | Gel | 32.72 mg/ml ± | Gel | Gel | Gel | 21.16 mg/ml ± | Gel | 0.05 mg/ml ± | Solubility in water ([1]; XRPD: Crystalline): 11 to 35 mg/mL; pH of solution ([1]; XRPD: Crystalline): 8; solubility ([2]; Demi-Water (pH 7.8), 24 h): Gel; solubility ([2]; Demi-Water (pH 7.8), 24 h, listed as lysine salt): turned into gets |
